Experiments:
melanotic melanoma B16 = assay: In vivo antitumor activity against B16 melanoma (ip); settings: Q4D × 3
[1] = system: lymphocytic leukemia P388; assay: In vivo antitumor activity against P388 leukemia (ip)

C/C(=C\C(C)C(=O)CC(O)CC1CC(=O)NC(=O)C1)C1OC(=O)/C=C/CC/C=C/C=C\C1C (stereo not drawn) [BU-4146T]
Body weight change on day 4 (melanotic melanoma B16; 0.25 mg/kg/day ip): +1.0 g | MST (median survival times) (melanotic melanoma B16; 0.25 mg/kg/day ip): 17.0 days | T/C (melanotic melanoma B16; 0.25 mg/kg/day ip): 117% | Body weight change on day 4 (melanotic melanoma B16; 1 mg/kg/day ip): +0.3 g | MST (median survival times) (melanotic melanoma B16; 1 mg/kg/day ip): 17.5 days | T/C (melanotic melanoma B16; 1 mg/kg/day ip): 121% | Body weight change on day 4 (melanotic melanoma B16; 2 mg/kg/day ip): +0.8 g | MST (median survival times) (melanotic melanoma B16; 2 mg/kg/day ip): 21.0 days | Body weight change on day 4 (melanotic melanoma B16; 4 mg/kg/day ip): -1.3 g | MST (median survival times) (melanotic melanoma B16; 4 mg/kg/day ip): 12.5 days | T/C (melanotic melanoma B16; 4 mg/kg/day ip): 86% | Body weight change on day 4 ([1]; 0.063 mg/kg/day ip, Q1D × 9): +1.5 g | MST (median survival time) ([1]; 0.063 mg/kg/day ip, Q1D × 9): 11.0 days | T/C ([1]; 0.063 mg/kg/day ip, Q1D × 9): 110% | Body weight change on day 4 ([1]; 0.13 mg/kg/day ip, Q1D × 9): 0.8 g | MST (median survival time) ([1]; 0.13 mg/kg/day ip, Q1D × 9): 12.0 days | T/C ([1]; 0.13 mg/kg/day ip, Q1D × 9): 120% | Body weight change on day 4 ([1]; 0.25 mg/kg/day ip, Q1D × 9): +0.8 g | MST (median survival time) ([1]; 0.25 mg/kg/day ip, Q1D × 9): 14.0 days | Body weight change on day 4 ([1]; 0.25 mg/kg/day ip, Q4D × 3): +0.5 g | MST (median survival time) ([1]; 0.25 mg/kg/day ip, Q4D × 3): 11.5 days | T/C ([1]; 0.25 mg/kg/day ip, Q4D × 3): 105% | Body weight change on day 4 ([1]; 0.5 mg/kg/day ip, Q1D × 9): +0.5 g | MST (median survival time) ([1]; 0.5 mg/kg/day ip, Q1D × 9): 13.5 days | Body weight change on day 4 ([1]; 1 mg/kg/day ip, Q1D × 1): +0.8 g | MST (median survival time) ([1]; 1 mg/kg/day ip, Q1D × 1): 12.5 days | T/C ([1]; 1 mg/kg/day ip, Q1D × 1): 114% | Body weight change on day 4 ([1]; 1 mg/kg/day ip, Q1D × 9): +0.5 g | MST (median survival time) ([1]; 1 mg/kg/day ip, Q1D × 9): 14.5 days | T/C ([1]; 1 mg/kg/day ip, Q1D × 9): 145% | Body weight change on day 4 ([1]; 1 mg/kg/day ip, Q4D × 3): +0.8 g | MST (median survival time) ([1]; 1 mg/kg/day ip, Q4D × 3): 15.0 days | Body weight change on day 4 ([1]; 2 mg/kg/day ip, Q1D × 1): +0.3 g | MST (median survival time) ([1]; 2 mg/kg/day ip, Q1D × 1): 13.0 days | T/C ([1]; 2 mg/kg/day ip, Q1D × 1): 118% | Body weight change on day 4 ([1]; 2 mg/kg/day ip, Q4D × 3): 0.0 g | MST (median survival time) ([1]; 2 mg/kg/day ip, Q4D × 3): 15.0 days | Body weight change on day 4 ([1]; 4 mg/kg/day ip, Q1D × 1): -1.5 g | MST (median survival time) ([1]; 4 mg/kg/day ip, Q1D × 1): 15.0 days | Body weight change on day 4 ([1]; 4 mg/kg/day ip, Q4D × 3): -1.0 g | MST (median survival time) ([1]; 4 mg/kg/day ip, Q4D × 3): 12.0 days | T/C ([1]; 4 mg/kg/day ip, Q4D × 3): 109% | Body weight change on day 4 ([1]; 8 mg/kg/day ip, Q1D × 1): -1.5 g | MST (median survival time) ([1]; 8 mg/kg/day ip, Q1D × 1): 8.0 days | T/C ([1]; 8 mg/kg/day ip, Q1D × 1): 73% | activity in terms of minimum effective dose ([1]; Q1D × 9 schedule, P388, versus mitomycin C): as active as mitomycin C

CO[C@@]12[C@H](COC(N)=O)C3=C(C(=O)C(C)=C(N)C3=O)N1C[C@@H]1N[C@@H]12 [Mitomycin C, reference compound]
MST (median survival times) (melanotic melanoma B16; 0.25 mg/kg/day ip): 14.5 days | T/C (melanotic melanoma B16; 0.25 mg/kg/day ip): 100% | Body weight change on day 4 (melanotic melanoma B16; 1 mg/kg/day ip): +0.8 g | MST (median survival times) (melanotic melanoma B16; 1 mg/kg/day ip): 20.0 days | Body weight change on day 4 ([1]; 0.063 mg/kg/day ip, Q1D × 9): +0.8 g | Body weight change on day 4 ([1]; 0.25 mg/kg/day ip, Q1D × 9): +1.0 g | Body weight change on day 4 ([1]; 0.5 mg/kg/day ip, Q1D × 9): 0.0 g | Body weight change on day 4 ([1]; 1 mg/kg/day ip, Q4D × 3): +0.8 g | Body weight change on day 4 ([1]; 2 mg/kg/day ip, Q4D × 3): 0.0 g | Body weight change on day 4 ([1]; 4 mg/kg/day ip, Q4D × 3): 0.0 g | MST (median survival time) ([1]; 4 mg/kg/day ip, Q4D × 3): 20.0 days
